Test results: ChEMBL document CHEMBL1127813, “Pseudopeptide inhibitors of Ras farnesyl-protein transferase” (J Med Chem, 1994)

Protein sequences, listed by entry. Tags and fused reporters are not part of them.
UniProt Q5EAD5, whole entry, looked up: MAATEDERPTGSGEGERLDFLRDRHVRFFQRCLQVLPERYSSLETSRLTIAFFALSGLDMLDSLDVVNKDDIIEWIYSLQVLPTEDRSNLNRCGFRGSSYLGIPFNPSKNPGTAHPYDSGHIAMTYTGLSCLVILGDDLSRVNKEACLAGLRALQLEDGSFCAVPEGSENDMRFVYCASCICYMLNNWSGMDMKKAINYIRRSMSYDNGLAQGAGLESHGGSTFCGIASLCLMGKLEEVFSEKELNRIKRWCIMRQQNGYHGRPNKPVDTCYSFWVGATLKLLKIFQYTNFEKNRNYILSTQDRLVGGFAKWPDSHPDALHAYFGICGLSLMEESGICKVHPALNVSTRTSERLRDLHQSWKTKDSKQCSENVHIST
UniProt P49355, whole entry, looked up: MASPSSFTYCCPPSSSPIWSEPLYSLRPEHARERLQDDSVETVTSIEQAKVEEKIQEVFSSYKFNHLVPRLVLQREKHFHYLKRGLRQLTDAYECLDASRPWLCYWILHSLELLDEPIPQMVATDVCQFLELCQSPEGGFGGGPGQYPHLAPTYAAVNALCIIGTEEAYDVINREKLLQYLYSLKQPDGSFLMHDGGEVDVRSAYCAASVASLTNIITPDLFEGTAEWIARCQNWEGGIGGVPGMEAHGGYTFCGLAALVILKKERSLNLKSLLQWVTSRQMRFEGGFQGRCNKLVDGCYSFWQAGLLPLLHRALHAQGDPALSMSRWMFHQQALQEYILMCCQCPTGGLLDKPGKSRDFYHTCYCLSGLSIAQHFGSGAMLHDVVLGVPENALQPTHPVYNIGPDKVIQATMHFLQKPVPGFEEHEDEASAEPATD

Key:
[1] = target: Geranylgeranyl transferase type I (Bos taurus, UniProt P29702+Q5EAD5); test: Inhibitory activity against bovine type-1 geranylgeranyl transferase.; type: protein-complex assay
[2] = target: Protein farnesyltransferase (Bos taurus, UniProt P29702+P49355); test: Inhibitory activity against Ras Farnesyl Protein transferase from bovine brain
Outline: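 FPTase purified from bovine brain (about 1 nM) incubated with [³H]FPP, recombinant Harvey-Ras and varying inhibitor concentrations. Protein was acid-precipitated and Ras-bound label counted by scintillation. IC50 is the concentration halving label incorporation relative to the no-inhibitor control, given as mean ± SEM with the number of determinations.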

IC50 [1]: 11.3 µM
IC50 [2]: 16.7 µM
Compound: CC[C@H](C)[C@H](NC(=O)[C@@H](NC(=O)[C@@H](N)CS)C(C)C)C(=O)N[C@@H](CC(C)C)C(=O)O
